In article PMC4039119, “Inhibition of HER2-integrin signaling by Cucurbitacin B leads to in vitro and in vivo breast tumor growth suppression” (Oncotarget, 2014):

Experiments:
[1] = Body weight and organ weight (gross toxicity) in 4T-1 tumor-bearing mice; type: in vivo, female BALB/c mice
Method: (§1) To test the efficacy of CuB in vivo, two breast tumor experiments were performed. In the first experiment, 5X10^6 MDA-MB-231 cells were injected orthotopically in the mammary fat pads of female athymic nude mice. Once each mouse attained palpable tumors, mice were randomly divided into two groups with ten mice in each group. Treatment group received 2mg/kg CuB everyday by oral gavage. The tumor growth was monitored by measuring tumor volumes periodically. […] At day 60 of the treatment, tumor volume in the treated group was reduced by 55% as compared to the control group [249.5±30.3mm^3 vs 111.3±18.4mm^3; (n=10)] (Fig. 7Ai). The weight of the MDA-MB-231 tumors dissected from treated mice was about 53% less than the weight of tumors from control mice (Fig. 7Aii). […] In the other experiment, 0.1X10^6 4T-1 breast cancer cells were injected in the mammary fat pads of female BALB/c mice. 4T-1 cells are highly aggressive and considered to be late stage breast cancer. Once each mouse attained palpable tumors, mice were segregated into two groups with eight mice in each group. 1mg/kg CuB was given intraperitoneally, every third day to the mice of treatment group and the growth of the tumors monitored. […] For example, at day 28 of the treatment, 4T-1 tumor volume in the treated group was reduced by 39% as compared to control group [2355.3±236.4mm^3 vs 1446.7±142.6mm^3; (n=8)] (Fig. 7Bi). Similarly, the weight of the tumors in treated mice was reduced by 27% (Fig. 7Bii & iv). […] Since the weight of the mice dropped initially after intraperitoneal administration, we decided to evaluate the mice of treated group for any signs of gross toxicity. The organs of control and treated mice were weighed once the experiment was terminated. […] The enzymatic activities of AST, ALT and LDH were also evaluated in the plasma of control and CuB treated mice. […] The exact reasons behind the decrease in LDH level by CuB treatment was not clear and require further studies.
In another experiment, female BALB/c mice (4-6 weeks old) were obtained from Jackson Laboratories (Ban harbor, Maine, USA) and maintained under controlled humidity and temperature conditions. The use of BALB/c mice and their treatment was approved by the Institutional Animal Care and Use Committee (IACUC), Texas Tech University Health Sciences Center, and the experiments were conducted in strict compliance with the regulations. Exponentially growing 4T-1 cells were harvested, washed and re-suspended in PBS at a density of 1x10^6 cells per ml with 50% matrigel. A suspension of 0.1mL containing 0.1x10^6 cells was injected in the mammary fat pads of the recipient mice. Tumor volumes and animal weights were measured every alternate day as described by us previously. When the tumors reached a size of about 30-50 mm3, mice were randomly segregated into two groups with eight mice in each group. The treatment group of mice received 1mg/kg CuB in PBS by i.p. injection every third day till day 28. The control mice received vehicle alone. Mice were sacrificed on day 28 by CO2 overdose and death was confirmed by cervical dislocation in accordance with IACUC guidelines. The tumors were removed aseptically from each mouse, weighed and snap frozen in liquid-nitrogen for further analysis.

[2] = Enzymatic activities of AST, ALT and LDH in plasma; type: in vivo, female BALB/c mice; settings: 1mg/kg i.p.
Method: as §1

[3] = Mice weight in MDA-MB-231 tumor experiment; type: in vivo, female athymic nude mice; settings: 2mg/kg oral gavage every day
Method: Female athymic nude mice (4-6 weeks old) were obtained from Jackson Laboratories (Ban harbor, Maine, USA) and maintained under specific pathogen-free conditions. The use of athymic nude mice and their treatment was approved by the Institutional Animal Care and Use Committee (IACUC), Texas Tech University Health Sciences Center, and the experiments were conducted in strict compliance with the regulations. Mice were given antioxidant-free AIN-76A special diet (TestDiet, Richmond, IN) one week before starting the experiment. Exponentially growing MDA-MB-231 cells were harvested, washed and resuspended in PBS at a density of 50x10^6 cells per ml with 80% matrigel (BD Biosciences, San Jose, CA). A suspension of 0.1mL containing 5x10^6 cells was injected in the mammary fat pads of the recipient mice. Tumor volumes and animal weights were measured twice a week as described by us previously. When the tumors reached a size of about 50-80 mm^3, mice were randomly segregated into two groups with ten mice in each group. Test group of mice received 2mg/kg CuB in PBS by oral gavage every day till day 60, whereas control mice received vehicle alone. Mice were sacrificed on day 60 by CO2 overdose and death was confirmed by cervical dislocation in accordance with IACUC guidelines. […]

MDA-MB-231 cells = test system: MDA-MB-231 cells; parameters: method as in PMID 17049494; settings: MDA-MB-231, 48h, CuB from plant extract; read-out: IC50 (cytotoxicity); cited from earlier work
breast cancer cells = test system: breast cancer cells; parameters: method as in PMID 23393598; settings: 48h of treatment, cell line not stated, cited from earlier work
[4] = 1mg/kg i.p., ratio of organ to body weight

Cucurbitacin B [CuB]
weight of mice as compared to control ([1]; 1mg/kg i.p. every third day): transitory reduction in weight | weight of organs like liver, spleen, kidney, lungs, brain and heart vs control ([1]; 1mg/kg i.p. every third day): No change | Brain weight ([1]; 1mg/kg i.p., at termination): 0.38 ± 0.03 g | Heart weight ([1]; 1mg/kg i.p., at termination): 0.17 ± 0.02 g | Kidney weight ([1]; 1mg/kg i.p., at termination): 0.43 ± 0.02 g | Liver weight ([1]; 1mg/kg i.p., at termination): 1.53 ± 0.10 g | Lungs weight ([1]; 1mg/kg i.p., at termination): 0.33 ± 0.02 g | Spleen weight ([1]; 1mg/kg i.p., at termination): 0.7 ± 0.10 g | body weight ([1]; 1mg/kg i.p., at termination): 19.15 ± 1.17 g | Brain/Bw ratio [1, 4]: 0.02±0.01 | Heart/Bw ratio [1, 4]: 0.01±0.01 | Kidney/Bw ratio [1, 4]: 0.02±0.01 | Liver/BW ratio [1, 4]: 0.08±0.00 | Lungs/Bw ratio [1, 4]: 0.02±0.00 | Spleen/Bw ratio [1, 4]: 0.04±0.00 | ALT enzymatic activity in plasma [2]: 18.41±1.6 | AST enzymatic activity in plasma [2]: 90.54±19.5 | LDH enzymatic activity in plasma [2]: 197.25±47.35 | change in the activity of ALT and AST ([2]; vs control): no significant change | plasma LDH level reduction ([2]; vs control): 24.3% | weight of mice [3]: did not change significantly | IC50 (MDA-MB-231 cells): 8 µM | IC50 (cytotoxicity) (breast cancer cells): 38.9 µg/mL | IC50 (breast cancer cells; read-out: IC50 (cytotoxicity)): 70 µM
